PubChem BioAssay AID504339 (National Center for Advancing Translational Sciences (NCATS), 2011)
This is a selection; strong and weak results do not stand in their true shares. Results filed as inconclusive are left out. Active and inactive are the calls of the source. The call rests on the fitted dose curve; in most records, active means well fitted inhibition curve with a large enough effect; inconclusive means small, poorly fitted or top-dose-only effect; inactive means no such curve, though single readings can be large or run the other way.

The chains behind the UniProt entries cited, without tags or fusion partners.
UniProt O75164, whole entry: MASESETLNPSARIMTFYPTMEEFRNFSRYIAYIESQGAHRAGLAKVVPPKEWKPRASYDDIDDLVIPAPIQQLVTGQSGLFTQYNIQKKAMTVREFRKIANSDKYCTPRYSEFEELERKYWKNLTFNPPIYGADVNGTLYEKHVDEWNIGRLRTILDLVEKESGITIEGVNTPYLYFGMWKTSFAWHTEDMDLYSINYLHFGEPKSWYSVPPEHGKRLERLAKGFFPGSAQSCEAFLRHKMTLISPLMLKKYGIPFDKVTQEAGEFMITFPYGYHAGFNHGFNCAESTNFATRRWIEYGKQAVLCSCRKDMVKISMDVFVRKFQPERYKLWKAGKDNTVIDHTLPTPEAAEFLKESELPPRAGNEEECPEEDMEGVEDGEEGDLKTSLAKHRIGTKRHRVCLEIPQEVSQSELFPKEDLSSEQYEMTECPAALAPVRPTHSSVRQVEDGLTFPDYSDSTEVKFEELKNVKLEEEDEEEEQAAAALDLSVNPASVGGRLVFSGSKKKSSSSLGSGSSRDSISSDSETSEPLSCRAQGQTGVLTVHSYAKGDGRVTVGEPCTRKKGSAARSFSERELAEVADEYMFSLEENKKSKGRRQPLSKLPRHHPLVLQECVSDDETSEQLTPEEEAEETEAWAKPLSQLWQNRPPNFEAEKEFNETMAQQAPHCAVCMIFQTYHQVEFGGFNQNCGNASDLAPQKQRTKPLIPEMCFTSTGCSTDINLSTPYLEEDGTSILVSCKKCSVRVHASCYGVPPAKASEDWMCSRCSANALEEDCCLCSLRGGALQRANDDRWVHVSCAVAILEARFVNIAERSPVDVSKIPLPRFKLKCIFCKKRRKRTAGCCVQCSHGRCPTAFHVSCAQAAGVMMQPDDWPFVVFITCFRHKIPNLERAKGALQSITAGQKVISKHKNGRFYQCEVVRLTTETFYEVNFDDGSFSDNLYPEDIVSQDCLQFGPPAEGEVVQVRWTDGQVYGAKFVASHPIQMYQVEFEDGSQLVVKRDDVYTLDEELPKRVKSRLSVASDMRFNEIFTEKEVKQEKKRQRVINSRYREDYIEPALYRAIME

Biological target: Lysine-specific demethylase 4A (Homo sapiens) (UniProt O75164)
Assay: qHTS Assay for Inhibitors of JMJD2A-Tudor Domain; further: nearly all actives have a fitted effect of over 50% in size
Details: AlphaScreen JMJD2A-Tudor / H3K4me3 peptide binding; at 114 µM (top of the series)
On the % scale 0 is the no-effect control and ±100 the full control effect.

Row | Compound | activity change, negative = inhibition
1 | COP1(=S)c2c(C)nn(CCC#N)c2N=C(c2ccc(F)cc2)N1C (stereo unspecified) | inactive: -11%
